Measurements published in ChEMBL document CHEMBL4138078, “Structure-based virtual screening and optimization of modulators targeting Hsp90-Cdc37 interaction” (Eur J Med Chem, 2017).
The source made the active and inactive calls. No cut-off for these calls is given here.

Chains of the proteins cited; added tags and fusions are not shown.
UniProt P08238, whole entry, looked up: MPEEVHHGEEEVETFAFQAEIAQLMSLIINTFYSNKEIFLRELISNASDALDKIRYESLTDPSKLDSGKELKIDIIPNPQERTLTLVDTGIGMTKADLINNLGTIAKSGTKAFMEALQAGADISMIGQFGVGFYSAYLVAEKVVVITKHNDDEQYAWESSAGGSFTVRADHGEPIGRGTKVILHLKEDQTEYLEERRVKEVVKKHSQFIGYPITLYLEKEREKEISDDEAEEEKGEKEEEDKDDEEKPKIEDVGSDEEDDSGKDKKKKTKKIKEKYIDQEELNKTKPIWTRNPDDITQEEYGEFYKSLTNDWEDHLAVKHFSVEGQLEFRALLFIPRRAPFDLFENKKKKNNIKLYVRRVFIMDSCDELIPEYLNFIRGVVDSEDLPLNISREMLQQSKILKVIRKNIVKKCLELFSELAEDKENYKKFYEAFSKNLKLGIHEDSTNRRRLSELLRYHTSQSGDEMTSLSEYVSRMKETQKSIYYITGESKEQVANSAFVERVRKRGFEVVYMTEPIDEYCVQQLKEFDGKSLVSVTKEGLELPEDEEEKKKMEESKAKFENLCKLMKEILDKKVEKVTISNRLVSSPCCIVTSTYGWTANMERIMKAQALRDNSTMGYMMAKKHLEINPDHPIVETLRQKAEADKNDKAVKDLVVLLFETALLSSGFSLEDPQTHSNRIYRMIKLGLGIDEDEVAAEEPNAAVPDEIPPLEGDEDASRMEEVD

Assays:
[1] = biological target: T1, Heat shock protein HSP90 (Homo sapiens, UniProt P07900+P08238); assay: Inhibition of N-terminal GST-tagged HSP90 ATPase activity (unknown origin) expressed in Escherichia coli at 100 uM after 1 hr in presence of ATP by spectrophotometric assay relative to control
Method in brief: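 ADP Hunter Plus ADP-detection kit. Compound at 100 μM final in 15 mM HEPES, 20 mM NaCl, 1 mM EDTA, 10 mM MgCl2, 0.02% Tween20, pH 7.4. Mixed in equal volumes with Hsp90 (5 μM) and ATP (100 μM), 1 h at 37 °C. Detection reagents A and B added, 30 min at room temperature; ex 540/em 620 nm. Protein-free background; no-ligand wells set as 100% activity.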

[2] = biological target: T1, Heat shock protein HSP90; assay: Inhibition of GA-FITC binding to N-terminal GST-tagged HSP90 (unknown origin) expressed in Escherichia coli at 100 uM after 30 mins fluorescence polarization assay relative to control
Method in brief: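 FP competition at 100 μM compound. Mixture: 100 nM Hsp90 and 10 nM FITC-geldanamycin probe in 100 mM Tris pH 7.4, 20 mM KCl, 6 mM MgCl2, 5 mg/ml BSA. Incubated 30 min at room temperature in the dark; ex 485/em 535 nm. % inhibition = 1 − (Pobs − Pmin)/(Pmax − Pmin); Pmax is protein plus probe, Pmin is free probe.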

Structure (SMILES)	inhibition [1]	inhibition [2]
O[C@H](COc1ccc(OC[C@H](O)CN2CCN(c3cccc(Cl)c3)CC2)cc1)CN1CCN(c2cccc(Cl)c2)CC1	< 10%	inactive
COc1ccc(CCNc2cc(N3CCN(CCO)CC3)ccc2[N+](=O)[O-])cc1OC	< 10%	inactive
